Assays:
Staphylococcus aureus [1] = settings: 1199
Staphylococcus aureus [2] = settings: 494
Staphylococcus aureus [3] = settings: NJ992

Measured: MIC

GENTAMICIN
0.5 µg/mL: all assays above

— ChEMBL document CHEMBL1649505, “Activity of telavancin against Staphylococcus aureus strains with various vancomycin susceptibilities in an in vitro pharmacokinetic/pharmacodynamic model with simulated endocardial vegetations” (Antimicrob Agents Chemother, 2009)
